Antibody variant affinities, Ab-95 light chain, assay 2

All variants were tested on one target, the spike HR2 peptide PDVDLGDISGINAS (SARS-CoV-2).

The variants keep the heavy chain, the linker and the frameworks of Ab-95 (scFv order VH, a (GGGGS)3 linker, VL).
VH: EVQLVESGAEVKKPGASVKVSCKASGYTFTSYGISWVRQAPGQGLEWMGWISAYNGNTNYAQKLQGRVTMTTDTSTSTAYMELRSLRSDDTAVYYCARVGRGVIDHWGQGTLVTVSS
VL: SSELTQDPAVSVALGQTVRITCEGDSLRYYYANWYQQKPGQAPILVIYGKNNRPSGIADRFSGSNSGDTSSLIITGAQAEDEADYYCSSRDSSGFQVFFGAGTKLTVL

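The parent was found by panning a naive human phage display library on the peptide. The library (AAYL52) carries one to three amino acid substitutions per variant, with no insertions or deletions. AlphaSeq pools MATa yeast showing the antibodies with MATalpha yeast showing the peptide. After mating in shaken culture at 30 °C for 16 h, diploids were selected and their barcode pairs sequenced. The ratio of observed to expected reads was calibrated, replicate by replicate, on BCL2-family standards whose Kd was known from biolayer interferometry. There are three technical replicates.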

Variants are written as CDR1, CDR2 and CDR3 of the light chain (limits as in the source). Parent: EGDSLRYYYAN, GKNNRPS, SSRDSSGFQVF. Scale: log10 of Kd in nM, estimated from mating counts; low values are strong binders. Averages over replicates are reported, and they cover detected replicates only. An entry "nd" has no value in the source: the pair was not observed among the diploids in that replicate. This suggests poor binding but is not conclusive.

{"CDR-L1": "EGDWLRYYYAN", "CDR-L2": "GKNNRPS", "CDR-L3": "SSRDSSGFQRF", "replicates, log10 nM": "4.00 3.21 nd", "log10 Kd (nM), mean": "3.60", "empty controls": "5/9 (3.59)"}
{"CDR-L1": "EGDSHRYYYAN", "CDR-L2": "GKNNRPS", "CDR-L3": "SSVDSSGWQVF", "replicates, log10 nM": "4.54 nd nd", "log10 Kd (nM), mean": "4.54", "empty controls": "4/9 (3.63)"}
{"CDR-L1": "EGDSLRAYYAN", "CDR-L2": "GKNNRPS", "CDR-L3": "SSKDSSGFQVF", "replicates, log10 nM": "2.09 2.46 2.19", "log10 Kd (nM), mean": "2.25", "empty controls": "6/9 (4.36)"}
{"CDR-L1": "PGDSLRYYYAN", "CDR-L2": "VKNNRPS", "CDR-L3": "ESRDSSGFQVF", "replicates, log10 nM": "4.91 nd nd", "log10 Kd (nM), mean": "4.91", "empty controls": "0/9"}
{"CDR-L1": "EGDSLRYYYAD", "CDR-L2": "GKNNRPS", "CDR-L3": "SFRDSSGNQVF", "replicates, log10 nM": "nd 3.17 nd", "log10 Kd (nM), mean": "3.17", "empty controls": "1/9 (3.87)"}
{"CDR-L1": "EGDSLRYYYAN", "CDR-L2": "AKNNRPI", "CDR-L3": "SSRDSSGFMVF", "replicates, log10 nM": "nd 4.14 4.69", "log10 Kd (nM), mean": "4.41", "empty controls": "3/9 (4.17)"}
{"CDR-L1": "EGDSLRYYYAN", "CDR-L2": "GKNNRPS", "CDR-L3": "SSFDSDGFQVF", "replicates, log10 nM": "2.63 2.23 2.14", "log10 Kd (nM), mean": "2.33", "empty controls": "3/9 (4.46)"}
{"CDR-L1": "EGDSLFYYYAN", "CDR-L2": "GKNNRPS", "CDR-L3": "SSRDSSGFQVF", "replicates, log10 nM": "3.21 2.71 3.28", "log10 Kd (nM), mean": "3.07", "empty controls": "0/9"}
{"CDR-L1": "WGDSLRYMYAN", "CDR-L2": "GKNNRFS", "CDR-L3": "SSRDSSGFQVF", "replicates, log10 nM": "2.67 2.50 2.19", "log10 Kd (nM), mean": "2.46", "empty controls": "2/9 (4.01)"}
{"CDR-L1": "EGDSLRYYYAN", "CDR-L2": "GKNNRGS", "CDR-L3": "SSRHSSMFQVF", "replicates, log10 nM": "3.20 2.36 4.42", "log10 Kd (nM), mean": "3.33", "empty controls": "4/9 (3.78)"}
{"CDR-L1": "EGCSLIYYYAN", "CDR-L2": "GKNNRPS", "CDR-L3": "ASRDSSGFQVF", "replicates, log10 nM": "3.32 4.42 nd", "log10 Kd (nM), mean": "3.87", "empty controls": "2/9 (3.76)"}
{"CDR-L1": "EIDSLRKYYAN", "CDR-L2": "GKNNRPS", "CDR-L3": "SSRDSEGFQVF", "replicates, log10 nM": "3.74 2.85 2.43", "log10 Kd (nM), mean": "3.00", "empty controls": "2/9 (3.85)"}
{"CDR-L1": "EGDSQRYYYAN", "CDR-L2": "GKNNRPS", "CDR-L3": "SSRVSSGFQVC", "replicates, log10 nM": "2.90 3.49 3.35", "log10 Kd (nM), mean": "3.25", "empty controls": "1/9 (3.96)"}
{"CDR-L1": "ENDSLRYRYAN", "CDR-L2": "GKYNRPS", "CDR-L3": "SSRDSSGFQVF", "replicates, log10 nM": "3.39 3.61 4.13", "log10 Kd (nM), mean": "3.71", "empty controls": "4/9 (3.65)"}
{"CDR-L1": "EGDSLRYYYAN", "CDR-L2": "GKNNRPS", "CDR-L3": "SMRDSSGFQVF", "replicates, log10 nM": "2.91 3.62 3.99", "log10 Kd (nM), mean": "3.51", "empty controls": "0/9"}
{"CDR-L1": "EGDSLRCYYAN", "CDR-L2": "PKNNRPS", "CDR-L3": "SSRDCSGFQVF", "replicates, log10 nM": "nd nd nd", "log10 Kd (nM), mean": "nd", "empty controls": "2/9 (3.61)"}
{"CDR-L1": "EGDSYRYYYAN", "CDR-L2": "GKNERPS", "CDR-L3": "SMRDSSGFQVF", "replicates, log10 nM": "2.03 2.57 3.05", "log10 Kd (nM), mean": "2.55", "empty controls": "4/9 (4.48)"}
{"CDR-L1": "EGDSLRYPYAN", "CDR-L2": "GKNNRPS", "CDR-L3": "SSIDSSGFQVK", "replicates, log10 nM": "nd nd nd", "log10 Kd (nM), mean": "nd", "empty controls": "1/9 (5.31)"}
{"CDR-L1": "EGDSLRYYYAN", "CDR-L2": "FKNNRGS", "CDR-L3": "SSRDFSGFQVF", "replicates, log10 nM": "2.77 nd nd", "log10 Kd (nM), mean": "2.77", "empty controls": "1/9 (3.74)"}
{"CDR-L1": "EGDSLRNCYAN", "CDR-L2": "GKNNRPS", "CDR-L3": "SSRDSSGDQVF", "replicates, log10 nM": "2.15 2.01 1.56", "log10 Kd (nM), mean": "1.91", "empty controls": "0/9"}
{"CDR-L1": "EGDSLDYYYAN", "CDR-L2": "GKNNRPS", "CDR-L3": "SSRDSSGFNVF", "replicates, log10 nM": "2.24 1.84 1.78", "log10 Kd (nM), mean": "1.95", "empty controls": "3/9 (3.56)"}
{"CDR-L1": "EGDSLRYYYAN", "CDR-L2": "HKNNRPI", "CDR-L3": "SSRDESGFQVF", "replicates, log10 nM": "2.78 nd nd", "log10 Kd (nM), mean": "2.78", "empty controls": "0/9"}
{"CDR-L1": "EGDSLRYYYAN", "CDR-L2": "GKNRRPS", "CDR-L3": "SSRNSSGFAVF", "replicates, log10 nM": "2.62 4.39 4.30", "log10 Kd (nM), mean": "3.77", "empty controls": "5/9 (4.09)"}
{"CDR-L1": "EGDELRYYYAM", "CDR-L2": "GKNNRPS", "CDR-L3": "SSRDSSGFQVF", "replicates, log10 nM": "2.92 nd nd", "log10 Kd (nM), mean": "2.92", "empty controls": "1/9 (3.95)"}
{"CDR-L1": "EGDSLRYYTAN", "CDR-L2": "GKNNRPP", "CDR-L3": "SSRDWSGFQVF", "replicates, log10 nM": "2.20 4.26 nd", "log10 Kd (nM), mean": "3.23", "empty controls": "4/9 (3.49)"}
{"CDR-L1": "EGVSLRYYYAG", "CDR-L2": "GKNNNPS", "CDR-L3": "SSRDSSGFQVF", "replicates, log10 nM": "nd nd nd", "log10 Kd (nM), mean": "nd", "empty controls": "2/9 (4.14)"}
{"CDR-L1": "EGDSLRYYYAS", "CDR-L2": "GKNNRPM", "CDR-L3": "SSRDSSGFQYF", "replicates, log10 nM": "3.35 2.31 nd", "log10 Kd (nM), mean": "2.83", "empty controls": "0/9"}
{"CDR-L1": "EGDSLRYYYIN", "CDR-L2": "GKNNRCS", "CDR-L3": "SSRDSSGFHVF", "replicates, log10 nM": "nd nd nd", "log10 Kd (nM), mean": "nd", "empty controls": "1/9 (2.97)"}
{"CDR-L1": "EGDSARYYYAN", "CDR-L2": "GKNNRPS", "CDR-L3": "SSMDSSMFQVF", "replicates, log10 nM": "3.43 4.78 nd", "log10 Kd (nM), mean": "4.10", "empty controls": "5/9 (3.91)"}

Extract of 3 entries:

{"CDR-L1": "EGDSARYYYAN", "CDR-L2": "GKNNRPS", "CDR-L3": "SSMDSSMFQVF", "replicates, log10 nM": "3.43 4.78 nd", "log10 Kd (nM), mean": "4.10", "empty controls": "5/9 (3.91)"}
{"CDR-L1": "EIDSLRKYYAN", "CDR-L2": "GKNNRPS", "CDR-L3": "SSRDSEGFQVF", "replicates, log10 nM": "3.74 2.85 2.43", "log10 Kd (nM), mean": "3.00", "empty controls": "2/9 (3.85)"}
{"CDR-L1": "EGDSLRYYYAN", "CDR-L2": "AKNNRPI", "CDR-L3": "SSRDSSGFMVF", "replicates, log10 nM": "nd 4.14 4.69", "log10 Kd (nM), mean": "4.41", "empty controls": "3/9 (4.17)"}

Background: pairings of library AAYL52 with three empty control strains gave a value in 28% of cases (median 3.91, 5th percentile 2.90). Values in that range, when seen in few replicates, are hard to tell from nonspecific mating. Also given: how often the same scFv was detected with the empty control strains, with their mean in brackets. For reference, the parent read 2.31 as the reference entry and 2.25 as a member of this library.

Values reported by Engelhart et al. 2022, doi:10.1038/s41597-022-01779-4 (FLAb copy).